Results as given in patent publication US10519247B2, “Targeting HER2 and HER3 with bispecific antibodies in cancerous cells” (Board of Regents, The University of Texas System, priority 2013, dated 2019).

Experiments:
Type in all cases: cell-based, human
SK-BR-3 cells [1] = test: Proliferation assay (MTS), SK-BR-3; conditions: 5 days
Description: (§1) Cells were plated in 96 well plates at a density of 2,500 cells per well and incubated overnight. […] Antibodies were used at a concentration of 50 nM unless otherwise indicated. Dimethyl sulfoxide or phosphate buffered saline (PBS) were used as vehicle controls for lapatinib or HRG-β1/antibodies, respectively. After 5 days of incubation in a 37° C. 5% CO2 incubator, cell proliferation was quantitated using CellTiter 96 AQeous One Solution Proliferation Assay kit (Promega, catalog no. G3580) according to the manufacturer's instructions.

BT-474 cells = test: Proliferation assay (MTS), BT-474; conditions: 5 days
Description: as §1

HCC1419 cells = test: Proliferation assay (MTS), HCC1419; conditions: 5 days
Description: as §1

SK-BR-3 cells [2] = test: Immunoblotting of cell lysates, SK-BR-3; conditions: 50 nM antibody + heregulin 6.25 nM, 24 hours
Description: Cells cultured to near confluence in 6 well plates were treated with lapatinib, HRG-β1 or antibodies as for proliferation assays. Following one or 24 hours incubation, cells were lysed using RIPA buffer (50 mM Tris, 150 mM NaCl, 0.5% sodium deoxycholate, 1% Triton X-100, 0.1% sodium dodecyl sulfate, 2 ug/mL aprotinin, 2 ug/mL leupeptin, 1 ug/mL pepstatin A, and 0.4 mg/mL pefabloc SC PLUS). Lysates were centrifuged for 20 minutes at 14,600 rpm at 4° C. and supernatants were collected. Protein concentrations in each lysate were determined using the BCA protein assay reagent (Pierce, catalog no. 23223). Total lysates were fractionated by SDS-PAGE and transferred onto polyvinylidene difluoride (PVDF) membranes (Millipore, catalog no. IPVH00010) or nitrocellulose membranes (Bio-Rad, catalog no 162.0145). Membranes were incubated with 5% bovine serum albumin in Tris-buffered saline with 0.1% Tween (TBST, pH 8.0) for 1 hour following transfer to block non-specific binding sites. Blocked membranes were incubated with primary antibodies overnight at 4° C. with agitation. […] Following incubation with secondary antibodies for 1 hour and washing, bound secondary antibody was detected using chemiluminescent detection regent (GE Healthcare, catalog no. RPN 2209/AF).

[3] = 50 nM antibody + 1 μM lapatinib + heregulin 6.25 nM
[4] = 50 nM antibody, no heregulin, no lapatinib
[5] = 50 nM antibody + heregulin 6.25 nM

Substance: trastuzumab [reference compound]
- proliferation in the presence of heregulin and lapatinib (SK-BR-3 cells [1]; [3]): did not reduce proliferation
- proliferation (SK-BR-3 cells [1]; [4]): higher anti-proliferative activity
- proliferation in the presence of heregulin and lapatinib (BT-474 cells; [3]): did not reduce proliferation
- proliferation in the presence of heregulin (BT-474 cells; [5]): ablated the inhibitory effects
- proliferation (BT-474 cells; [4]): higher anti-proliferative activity
- proliferation in the presence of heregulin and lapatinib (HCC1419 cells; [3]): did not reduce proliferation
- proliferation in the presence of heregulin (HCC1419 cells; [5]): ablated the inhibitory effects
- pAkt levels in the presence of heregulin (SK-BR-3 cells [2]): no change
